From patent publication US9388112B2, “Bisphenol derivatives and their use as androgen receptor activity modulators” (The University of British Columbia, priority 2010, dated 2016)

Sequences of proteins named here, by UniProt entry; tags and fusion partners are left off.
UniProt P10275, whole entry T878A: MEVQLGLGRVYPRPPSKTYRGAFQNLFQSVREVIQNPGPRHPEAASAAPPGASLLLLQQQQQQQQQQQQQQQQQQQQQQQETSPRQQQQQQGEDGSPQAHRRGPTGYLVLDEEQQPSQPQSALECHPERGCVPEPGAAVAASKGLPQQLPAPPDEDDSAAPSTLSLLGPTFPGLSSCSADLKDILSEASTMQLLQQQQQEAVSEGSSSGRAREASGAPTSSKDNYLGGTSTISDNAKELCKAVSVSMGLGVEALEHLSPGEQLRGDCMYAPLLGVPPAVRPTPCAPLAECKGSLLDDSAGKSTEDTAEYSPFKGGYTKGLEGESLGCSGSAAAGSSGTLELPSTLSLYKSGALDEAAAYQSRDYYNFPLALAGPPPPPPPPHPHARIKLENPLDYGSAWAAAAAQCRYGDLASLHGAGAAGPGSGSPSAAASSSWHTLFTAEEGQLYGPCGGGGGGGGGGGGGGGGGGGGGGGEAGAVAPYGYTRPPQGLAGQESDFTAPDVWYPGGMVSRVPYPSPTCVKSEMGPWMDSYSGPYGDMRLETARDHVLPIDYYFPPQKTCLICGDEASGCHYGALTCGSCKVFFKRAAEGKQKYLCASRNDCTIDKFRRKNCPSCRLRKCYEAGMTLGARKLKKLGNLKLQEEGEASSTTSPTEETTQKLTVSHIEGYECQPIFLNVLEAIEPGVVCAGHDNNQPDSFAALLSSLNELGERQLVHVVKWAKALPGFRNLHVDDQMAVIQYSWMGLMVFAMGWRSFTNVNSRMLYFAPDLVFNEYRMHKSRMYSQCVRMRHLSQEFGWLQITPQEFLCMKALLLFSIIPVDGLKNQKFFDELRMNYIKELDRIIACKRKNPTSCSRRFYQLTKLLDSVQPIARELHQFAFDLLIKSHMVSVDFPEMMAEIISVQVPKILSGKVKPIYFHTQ

Target: T1, androgen receptor (AR) (Homo sapiens, UniProt P10275, T878A)
T1 construct: LNCaP cells express endogenous AR; endogenous in cells; host or cells: LNCaP cells
Assay: LNCaP PSA (6.1 kb)-luciferase assay (R1881-induced)
Format: cell-based
Details: LNCaP cells transfected with PSA (6.1 kb)-luciferase, 1 h pre-treatment, R1881 1 nM, 48 h
Text: LNCaP cells were employed initially for all experiments because they are well-differentiated human prostate cancer cells in which ligand-independent activation of the AR by FSK has been characterized (Nazareth et al 1996 J. Biol. Chem. 271, 19900-19907; and Sadar 1999 J. Biol. Chem. 274, 7777-7783). LNCaP cells express endogenous AR and secrete prostate-specific antigen (PSA) (Horoszewicz et al 1983 Cancer Res. 43, 1809-1818). LNCaP cells can be grown either as monolayers in cell culture or as tumors in the well-characterized xenograft model that progresses to androgen independence in castrated hosts (Sato et al 1996 J. Steroid Biochem. Mol. Biol. 58, 139-146; Gleave et al 1991 Cancer Res. 51, 3753-3761; Sato et al 1997 Cancer Res. 57, 1584-1589; and Sadar et al 2002 Mol. Cancer Ther. 1(8), 629-637). […] Small molecules that specifically target the AR-NTD should have no effect on PC3 cells. […] Reporter specificity may be determined using several alternative reporter gene constructs. […]
LNCaP cells were transiently cotransfected with PSA (6.1 kb)-luciferase (0.25 μg/well) in 24-well plates for 24 h prior to pre-treatment with compounds for 1 hour before the addition of synthetic androgen, R1881 (1 nM) to induce PSA production or vehicle. […] After 48 h of incubation with R1881, the cells were harvested, and relative luciferase activity was determined. […]

| Structure (SMILES) | EX[…] (activity in the described assays) |
| --- | --- |
| CC(C)(c1ccc(OCCCCl)cc1)c1ccc(OCCOCCOCCO)cc1 | Active |
| CC(C)(c1ccc(O)cc1)c1ccc(OCCOCCOCCO)cc1 [drawing 872] | Active |
